Measured values from PMC2835692 (Journal of cardiovascular pharmacology, 2009).

Protein sequences, listed by entry. Tags and fused reporters are not part of them. Residues count along the entry.
UniProt P22894, 100-262 limits assumed: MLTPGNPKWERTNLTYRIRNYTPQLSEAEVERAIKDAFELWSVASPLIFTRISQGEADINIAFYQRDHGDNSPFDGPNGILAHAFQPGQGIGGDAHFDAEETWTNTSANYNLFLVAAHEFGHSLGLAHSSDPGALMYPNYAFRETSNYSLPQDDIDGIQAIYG
UniProt P08253, 110-446 limits assumed: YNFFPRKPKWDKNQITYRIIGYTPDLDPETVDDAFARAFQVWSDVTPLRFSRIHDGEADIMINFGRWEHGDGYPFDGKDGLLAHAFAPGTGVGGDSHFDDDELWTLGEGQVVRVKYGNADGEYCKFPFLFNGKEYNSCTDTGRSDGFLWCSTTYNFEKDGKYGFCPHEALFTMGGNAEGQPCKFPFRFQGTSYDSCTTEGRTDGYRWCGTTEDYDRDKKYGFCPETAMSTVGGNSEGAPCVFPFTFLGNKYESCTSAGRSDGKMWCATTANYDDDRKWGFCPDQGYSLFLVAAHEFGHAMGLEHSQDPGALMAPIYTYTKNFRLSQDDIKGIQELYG

Assays:
Format in all cases: biochemical
[1] = target: T1, recombinant human MMP-1 catalytic domain (Homo sapiens, UniProt P03956); assay: Recombinant MMP fluorescent assay, MMP-1
T1 sequence (P03956 100-269 limits assumed): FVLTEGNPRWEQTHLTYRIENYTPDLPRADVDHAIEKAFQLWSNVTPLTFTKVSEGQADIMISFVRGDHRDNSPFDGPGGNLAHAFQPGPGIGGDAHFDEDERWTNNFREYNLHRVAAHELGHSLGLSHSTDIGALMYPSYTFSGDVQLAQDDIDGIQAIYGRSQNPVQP

[2] = target: recombinant human MMP-8 catalytic domain (Homo sapiens, UniProt P22894); assay: Recombinant MMP fluorescent assay, MMP-8
[3] = target: recombinant human MMP-2 catalytic domain (Homo sapiens, UniProt P08253); assay: Recombinant MMP fluorescent assay, MMP-2; details: read-out: IC50 MMP-2; 1 hour preincubation at 37°C

IC50 ([1]; IC50 MMP-1, 1 hour preincubation at 37°C) [nM] | IC50 ([1]; IC50 MMP-1, as stated in discussion text) [nM] | IC50 ([2]; IC50 MMP-8, 1 hour preincubation at 37°C) [nM] | IC50 ([2]; IC50 MMP-8, as stated in discussion text) [nM] | Compound | IC50 [3] [nM]
< 50 | ≤ 50 | < 50 | ≤ 50 | COc1ccc(S(=O)(=O)N(Cc2cccnc2)[C@@H](C(=O)NO)C(C)C)cc1 [CGS27023A] | 
 |  |  |  | CC(C)[C@H](NS(=O)(=O)c1ccc(-c2ccc(Br)cc2)cc1)C(=O)O [PD166793, reference compound] | < 50
